US11866518B2, “Bicyclic peptide ligands specific for TSLP” (BicycleTx Limited, priority 2020, dated 2024)

Target: T1, TSLP (Homo sapiens, UniProt Q969D9)
T1 sequence (Q969D9 29-159): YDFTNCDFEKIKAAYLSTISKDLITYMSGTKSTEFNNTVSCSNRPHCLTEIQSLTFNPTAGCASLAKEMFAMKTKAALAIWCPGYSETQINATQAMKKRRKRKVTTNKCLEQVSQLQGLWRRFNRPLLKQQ
Experiment: Human TSLP Surface Plasmon Resonance (SPR) binding assay
Parameters: The resulting construct spCD33-6×HN-TEV-hTSLP(29-159)-Avi; 6xHN tag with TEV site (N, cleaved yes); made in house; host or cells: Expi293F cells
Details: biotinylated human TSLP immobilized on streptavidin chip; 20° C.; steady-state or kinetic 1:1 fit; read-out: hTSLP SPR Kd

Row | SMILES | Kd [nM]
1 | CC(=O)N[C@H]1CSCCC(=O)N2CN3CN(C2)C(=O)CCSC[C@H](NC(=O)[C@H](CC(=O)O)NC(=O)[C@H](CCC(=O)O)NC(=O)[C@H](CC(C)C)NC(=O)[C@H](Cc2c[nH]c4ccccc24)NC(=O)[C@@H](C)NC1=O)C(=O)N[C@@H](Cc1c[nH]c2ccccc12)C(=O)N[C@@H](CCCNC(=N)N(C)C)C(=O)NCC(=O)N[C@@H](Cc1ccc(F)cc1)C(=O)N[C@H](C(N)=O)CSCCC3=O [Example 134, Ac-(SEQ ID NO: 95)] | 470
2 | CC(=O)N[C@H]1CSCCC(=O)N2CN3CN(C2)C(=O)CCSC[C@H](NC(=O)[C@H](CC(=O)O)NC(=O)[C@H](CCC(=O)O)NC(=O)[C@H](CC(C)C)N(C)C(=O)[C@H](Cc2c[nH]c4ccccc24)NC(=O)[C@H](CCC(N)=O)NC1=O)C(=O)N[C@@H](Cc1c[nH]c2ccccc12)C(=O)N[C@@H](CCCNC(=N)N)C(=O)NCC(=O)N[C@@H](Cc1ccc(F)cc1)C(=O)N[C@H](C(N)=O)CSCCC3=O [Example 154, Ac-(SEQ ID NO: 113)] | 2900
3 | CC(=O)N[C@H]1CSCCC(=O)N2CN3CN(C2)C(=O)CCSC[C@H](NC(=O)[C@H](CC(=O)O)NC(=O)[C@H](CCC(=O)O)NC(=O)[C@H](CC(C)C)NC(=O)[C@H](Cc2c[nH]c4ccccc24)NC(=O)[C@H](C)NC1=O)C(=O)N[C@@H](Cc1cccc2ccccc12)C(=O)N[C@@H](CCCNC(=N)N)C(=O)NCC(=O)N[C@@H](Cc1ccc(F)cc1)C(=O)N[C@H](C(N)=O)CSCCC3=O [Example 66, Ac-(SEQ ID NO: 51)] | 71
4 | CC(=O)N[C@H]1CSCCC(=O)N2CN3CN(C2)C(=O)CCSC[C@H](NC(=O)[C@H](CC(=O)O)NC(=O)[C@H](CCC(=O)O)NC(=O)[C@H](CC(C)C)NC(=O)[C@H](Cc2c[nH]c4ccccc24)NC(=O)[C@H](CCC(N)=O)NC1=O)C(=O)N[C@@H](Cc1c[nH]c2ccccc12)C(=O)N[C@@H](CCCNC(=N)N)C(=O)NCC(=O)N[C@@H](Cc1cccc(C#N)c1)C(=O)N[C@H](C(N)=O)CSCCC3=O [Example 130, Ac-(SEQ ID NO: 91)] | 400
5 | CC(=O)N[C@H]1CSCCC(=O)N2CN3CN(C2)C(=O)CCSC[C@H](NC(=O)[C@H](CC(=O)O)NC(=O)[C@H](CCC(N)=O)NC(=O)[C@H](CC(C)C)NC(=O)[C@H](Cc2c[nH]c4ccccc24)NC(=O)[C@H](Cc2c[nH]c4ccccc24)NC1=O)C(=O)N[C@@H](Cc1c[nH]c2ccccc12)C(=O)N[C@@H](CCCNC(=N)N(C)C)C(=O)NCC(=O)N[C@@H](Cc1ccc(F)cc1)C(=O)N[C@H](C(N)=O)CSCCC3=O [Example 28, Ac-(SEQ ID NO: 26)] | 12
6 | CC(=O)N[C@H]1CSCCC(=O)N2CN3CN(C2)C(=O)CCSC[C@H](NC(=O)[C@H](CC(=O)O)NC(=O)[C@H](CCC(=O)O)NC(=O)[C@H](CC(C)C)NC(=O)[C@H](Cc2c[nH]c4ccccc24)NC(=O)[C@H](Cc2c[nH]cn2)NC1=O)C(=O)N[C@@H](Cc1c[nH]c2ccccc12)C(=O)N[C@@H](CCCNC(=N)N)C(=O)NCC(=O)N[C@@H](Cc1ccc(F)cc1)C(=O)N[C@H](C(N)=O)CSCCC3=O [Example 19, Ac-(SEQ ID NO: 17)] | 6.7
7 | CC(=O)N[C@H]1CSCCC(=O)N2CN3CN(C2)C(=O)CCSC[C@H](NC(=O)[C@H](CC(=O)O)NC(=O)[C@H](Cc2cccc(Cl)c2)NC(=O)[C@H](CC(C)C)NC(=O)[C@H](Cc2c[nH]c4ccccc24)NC(=O)[C@H](Cc2c[nH]c4ccccc24)NC1=O)C(=O)N[C@@H](Cc1c[nH]c2ccccc12)C(=O)N[C@@H](CCCNC(=N)N)C(=O)NCC(=O)N[C@@H](Cc1ccc(F)cc1)C(=O)N[C@H](C(N)=O)CSCCC3=O [Example 144, Ac-(SEQ ID NO: 103)] | 860
8 | CC(=O)N[C@H]1CSCCC(=O)N2CN3CN(C2)C(=O)CCSC[C@H](NC(=O)[C@H](CC(=O)O)NC(=O)[C@H](Cc2ccccc2)NC(=O)[C@H](CC(C)C)NC(=O)[C@H](Cc2c[nH]c4ccccc24)NC(=O)[C@H](CCC(N)=O)NC1=O)C(=O)N[C@@H](Cc1c[nH]c2ccccc12)C(=O)N[C@@H](CCCNC(=N)N)C(=O)NCC(=O)N[C@@H](Cc1ccc(F)cc1)C(=O)N[C@H](C(=O)O)CSCCC3=O [Example 39, Ac-(SEQ ID NO: 35)-COOH] | 21
9 | CSCC[C@@H]1NC(=O)[C@H](Cc2c[nH]c3ccccc23)NC(=O)[C@H](CCC(N)=O)NC(=O)[C@@H](NC(C)=O)CSCCC(=O)N2CN3CN(C2)C(=O)CCSC[C@H](NC(=O)[C@H](CC(=O)O)NC(=O)[C@H](CCC(=O)O)NC1=O)C(=O)N[C@@H](Cc1c[nH]c2ccccc12)C(=O)N[C@@H](CCCNC(=N)N)C(=O)NCC(=O)N[C@@H](Cc1ccc(F)cc1)C(=O)N[C@H](C(N)=O)CSCCC3=O [Example 51, Ac-(SEQ ID NO: 43)] | 38
10 | CCC(C)C[C@@H]1NC(=O)[C@H](Cc2c[nH]c3ccccc23)NC(=O)[C@H](CCC(N)=O)NC(=O)[C@@H](NC(C)=O)CSCCC(=O)N2CN3CN(C2)C(=O)CCSC[C@H](NC(=O)[C@H](CC(=O)O)NC(=O)[C@H](CCC(=O)O)NC1=O)C(=O)N[C@@H](Cc1c[nH]c2ccccc12)C(=O)N[C@@H](CCCNC(=N)N)C(=O)NCC(=O)N[C@@H](Cc1ccc(F)cc1)C(=O)N[C@H](C(N)=O)CSCCC3=O (some centres unmarked) [Example 160, Ac-(SEQ ID NO: 118)] | 10000
11 | CC(=O)N[C@H]1CSCCC(=O)N2CN3CN(C2)C(=O)CCSC[C@H](NC(=O)[C@H](CC(=O)O)NC(=O)[C@H](CCC(=O)O)NC(=O)[C@H](CC(C)C)NC(=O)[C@H](Cc2cccc4ccccc24)NC(=O)[C@H](C)NC1=O)C(=O)N[C@@H](Cc1c[nH]c2ccccc12)C(=O)N[C@@H](CCCCNC(=N)N)C(=O)NCC(=O)N[C@@H](Cc1ccc(F)cc1)C(=O)N[C@H](C(N)=O)CSCCC3=O [Example 62, Ac-(SEQ ID NO: 48)] | 63
12 | CC(=O)N[C@H]1CSCCC(=O)N2CN3CN(C2)C(=O)CCSC[C@H](NC(=O)[C@H](CC(N)=O)NC(=O)[C@H](CCC(=O)O)NC(=O)[C@H](CC(C)C)NC(=O)[C@H](Cc2c[nH]c4ccccc24)NC(=O)[C@H](CCC(N)=O)NC1=O)C(=O)N[C@@H](Cc1c[nH]c2ccccc12)C(=O)N[C@@H](CCCNC(=N)N)C(=O)NCC(=O)N[C@@H](Cc1ccc(F)cc1)C(=O)N[C@H](C(N)=O)CSCCC3=O [Example 23, Ac-(SEQ ID NO: 21)] | 9.9
13 | CC(=O)N[C@H]1CSCCC(=O)N2CN3CN(C2)C(=O)CCSC[C@H](NC(=O)[C@H](CC(=O)O)NC(=O)[C@H](Cc2ccccc2)NC(=O)[C@H](CC(C)C)NC(=O)[C@H](Cc2c[nH]c4ccccc24)NC(=O)[C@H](CCC(N)=O)NC1=O)C(=O)N[C@@H](Cc1c[nH]c2ccccc12)C(=O)N[C@@H](CCCNC(=N)N)C(=O)NCC(=O)N[C@@H](Cc1ccc(F)cc1)C(=O)N[C@H](C(N)=O)CSCCC3=O [Example 43, Ac-(SEQ ID NO: 35)] | 30
14 | CC(=O)N[C@H]1CSCCC(=O)N2CN3CN(C2)C(=O)CCSC[C@H](NC(=O)[C@H](CC(=O)O)NC(=O)[C@H](CCC(=O)O)NC(=O)[C@H](CC(C)C)NC(=O)[C@H](Cc2c[nH]c4ccccc24)NC(=O)[C@@H](C)NC1=O)C(=O)N[C@@H](Cc1c[nH]c2ccccc12)C(=O)N[C@@H](CCCNC(=N)N)C(=O)NCC(=O)N[C@@H](Cc1ccc(F)cc1)C(=O)N[C@H](C(N)=O)CSCCC3=O [Example 126, Ac-(SEQ ID NO: 90)] | 310
